Reference: US20100016274A1, “BETA-LACTAM CANNABINOID RECEPTOR MODULATORS” (priority 2006, published 2010)

Chains of the proteins cited; added tags and fusions are not shown.
UniProt P21554, whole entry: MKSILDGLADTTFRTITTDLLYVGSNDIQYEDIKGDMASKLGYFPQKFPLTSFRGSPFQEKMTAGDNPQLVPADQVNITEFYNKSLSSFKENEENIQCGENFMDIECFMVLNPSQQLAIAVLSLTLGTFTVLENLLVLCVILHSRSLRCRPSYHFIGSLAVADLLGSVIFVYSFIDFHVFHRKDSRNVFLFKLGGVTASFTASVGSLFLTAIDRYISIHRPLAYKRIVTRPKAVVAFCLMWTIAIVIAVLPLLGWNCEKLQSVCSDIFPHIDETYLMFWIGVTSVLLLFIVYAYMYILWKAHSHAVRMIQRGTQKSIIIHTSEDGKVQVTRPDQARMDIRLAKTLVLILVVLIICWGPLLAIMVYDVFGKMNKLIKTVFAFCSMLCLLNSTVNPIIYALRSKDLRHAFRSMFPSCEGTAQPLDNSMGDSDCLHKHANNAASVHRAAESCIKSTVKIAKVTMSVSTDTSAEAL
UniProt P34972, whole entry: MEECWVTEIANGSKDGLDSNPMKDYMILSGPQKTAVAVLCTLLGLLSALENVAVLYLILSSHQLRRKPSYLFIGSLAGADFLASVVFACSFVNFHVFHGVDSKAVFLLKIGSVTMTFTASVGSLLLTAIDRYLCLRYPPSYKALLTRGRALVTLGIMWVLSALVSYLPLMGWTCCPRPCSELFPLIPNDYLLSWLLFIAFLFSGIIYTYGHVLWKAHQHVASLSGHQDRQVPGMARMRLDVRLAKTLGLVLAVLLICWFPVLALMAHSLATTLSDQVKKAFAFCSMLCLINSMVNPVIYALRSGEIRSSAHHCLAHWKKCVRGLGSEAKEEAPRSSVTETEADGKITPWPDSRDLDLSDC

Legend:
[1] = target: cannabinoid receptor-1 (CB1), CB1R-containing cell membrane (Homo sapiens, UniProt P21554); settings: for IC50: displacement of 3H-CP55940 (1 nM) on CB1 receptors
[2] = target: cannabinoid receptor-2 (CB2), CB2R-containing cell membrane; hCB2 receptors (Homo sapiens, UniProt P34972); experiment: Cannabinoid Receptor-2 (CB2) Binding Assay, Method A using cell membranes (displacement of 3H-CP55940); settings: for IC50: displacement of 3H-CP55940 (1 nM), CB2R-containing cell membrane

SMILES | IC50 [1] | other results
O=C(N[C@@H]1CCCc2ccccc21)[C@H](CCC(=O)N1CCN(C2CCCCC2)CC1)N1C(=O)[C@@H](N2C(=O)OC[C@@H]2c2ccccc2)[C@H]1/C=C/c1cccc(F)c1 | 10000 nM | –
O=C(NC1(c2ccccc2)CCCC1)[C@H](CCC(=O)N1CCN(C2CCCCC2)CC1)N1C(=O)[C@@H](N2C(=O)OC[C@@H]2c2ccccc2)[C@H]1/C=C/c1cccc(Cl)c1 | 10000 nM | –
O=C(NCc1cccc(C(F)(F)F)c1)[C@@H](CCCc1ccccc1)N1C(=O)[C@@H](N2C(=O)OC[C@@H]2c2ccccc2)[C@H]1/C=C/c1ccccc1 | – | IC50 [2]: 480 nM; Ki ([2]; displacement of 3H-CP55940, CB2R-containing cell membrane, from serial dilutions): 320 nM
COc1cccc(/C=C/[C@@H]2[C@H](N3C(=O)OC[C@@H]3c3ccccc3)C(=O)N2[C@@H](CCC(=O)N2CCN(C3CCCCC3)CC2)C(=O)N[C@@H]2CCCc3ccccc32)c1 | 1190 nM | Ki ([1]; displacement of 3H-CP55940 on CB1 receptors, from serial dilutions, non-linear regression): 595 nM
COc1cccc(C=CC2C(N3C(=O)OCC3c3ccccc3)C(=O)N2C(CCC(=O)N2CCN(C3CCCCC3)CC2)C(=O)NC2(c3ccccc3)CCCC2)c1 (stereo not shown) | < 10000 nM | –
O=C(N[C@@H]1CCCc2ccccc21)[C@H](CCC(=O)N1CCN(C2CCCCC2)CC1)N1C(=O)[C@@H](N2C(=O)OC[C@@H]2c2ccccc2)[C@H]1/C=C/c1cccc(Cl)c1 | 10000 nM | –
O=C(NCc1cccc(C(F)(F)F)c1)[C@@H](CC(=O)N1CCC(CN2CCCCC2)CC1)N1C(=O)[C@@H](N2C(=O)OC[C@@H]2c2ccccc2)[C@H]1/C=C/c1ccccc1 | – | IC50 [2]: 1000 nM
CSc1cccc(/C=C/[C@@H]2[C@H](N3C(=O)OC[C@@H]3c3ccccc3)C(=O)N2[C@@H](CCC(=O)N2CCN(C3CCCCC3)CC2)C(=O)N[C@@H]2CCCc3ccccc32)c1 | < 10000 nM | –
